What was measured:
[1] = target: Con A (Canavalia ensiformis, UniProt P02866); test: SPR competition binding assay for Con A; conditions: individual mannose ligand with respect to monovalent αMeMan
Source text: To assess the binding affinity of α-D-methyl-mannopyrannoside (αMeMan) and various carbohydrate-AuNP for Con A, an SPR competition binding assay was employed based on previous reports (See Mann et al., J. Am. Chem. Soc. 1998, 120:10575; and Nieba et al., Anal. Biochem., 1996, 234:155; herein incorporated by reference) with certain modifications. A self-assembled monolayer composed of 20% mannopyranoside ligand and 80% thiobutanol mixture was generated on a J1 biosensor chip (See FIG. 9). In particular, immobilization of ligand to the biosensor chip was preformed in BIAcore 3000 instrument. […]
Next, the binding affinity of Con A for this chip was determined by titration with a series of Con A concentrations to generate multiple SPR curves. […]
Competition assays were then conducted. […] Ki values were determined by fitting the data into the equation: f=[I]/([I]+Ki (1+F/Kd). From the inhibition curves of each carbohydrate-AuNP, its inhibition constant (Ki) is obtained using the equations derived by Attie et al., J. Chem. Educ., 1995, 72:119. These values are shown in Table 4 below. Also, to compare the inhibition potencies of the individual mannose ligand on three different mannose-AuNP, with respect to monovalent αMeMan, the relative inhibition potency (RIP) was calculated (shown in Table 4).

[2] = target: type 1 pili in E. coli (FimH), ORN178 (Escherichia coli, UniProt P08191); type: binding

Substance: α-D-methyl-mannopyrannoside [αMeMan]
- RIP (relative inhibition potency) [1]: 1.0
- Mannose concentration required for competing out ~10% of m-AuNP binding to bacterial pili ([2]; ORN178): approximately 100 times of m-AuNP
- Mannose concentration required for competing out ~90% of m-AuNP binding to bacterial pili ([2]; ORN178): ~2000 times of m-AuNP
- effect on the binding of m-AuNP to bacterial pili ([2]; concentrations up to twenty times of m-AuNP concentration): no or little effect

— patent publication US20050287552A1, “Carbohydrate encapsulated nanoparticle based affinity mass spectrometry” (Academia Sinica, Office of Public Affairs (Technology …, priority 2003, published 2005)
